Drawing on US4956379A, “Pyrazole carboxylic acids and esters and inhibition of blood platelet aggregation therewith” (Bristol-Myers Squibb Company, priority 1990, dated 1990), this text covers IC50 for six compounds.

Converted amounts (≈) assume the structure as drawn.

By IC50 is commonly meant the concentration at which inhibition is half-maximal.

The test deals with human platelet aggregation (ADP-induced, platelet rich plasma). Put plainly: cells. Conditions: read-out: Inhibition of Human Platelet Aggregation, IC50 Vs ADP.
With `COC(=O)COc1cccc(CCn2cc(-c3ccccc3)c(-c3ccccc3)n2)c1` [1(a), Methyl [3-[2-(3,4-diphenyl-1H-pyrazol-1-yl)ethyl]phenoxy]acetate], the IC50 came out at 0.21 µg/mL (≈ 0.509 µM).
In the case of `COC(=O)COc1cccc(CCn2ncc(-c3ccccc3)c2-c2ccccc2)c1` [1(b), Methyl [3-[2-(4,5-diphenyl-1H-pyrazol-1-yl)ethyl]phenoxy]acetate], the IC50 stood at 0.2 µg/mL (≈ 0.485 µM).
As for `O=C(O)COc1cccc(CCn2cc(-c3ccccc3)c(-c3ccccc3)n2)c1` [Example 2, [3-[2-(3,4-Diphenyl-1H-pyrazol-1-yl)ethyl]phenoxy]acetic Acid], the figure is 0.35 µg/mL (≈ 0.878 µM).
As for `O=C(O)COc1cccc(CCn2ncc(-c3ccccc3)c2-c2ccccc2)c1` [Example 3, [3-[2-(4,5-Diphenyl-1H-pyrazol-1-yl)ethyl]phenoxy]acetic Acid], the figure is 0.3 µg/mL (≈ 0.753 µM); as for `COC(=O)COc1cccc(CCc2cc(-c3ccccc3)n(-c3ccccc3)n2)c1` [Example 4, Methyl [3-[2-(1,5-diphenyl-1H-pyrazol-3-yl)ethyl]phenoxy]acetate], 0.33 µg/mL (≈ 0.8 µM); as for `O=C(O)COc1cccc(CCc2cc(-c3ccccc3)n(-c3ccccc3)n2)c1` [Example 5, [3-[2-(1,5-Diphenyl-1H-pyrazol-3-yl)ethyl]phenoxy]acetic Acid], 0.67 µg/mL (≈ 1.68 µM).
